Data from Sander's compilation of Henry's law constants (doi:10.1021/ac00058a023).

Test: Henry solubility constant Hcp at 298.15 K (mol/(m3 Pa))
Details: reference: Li and Carr (1993)

CCCCOCCCC [dibutyl ether]
Henry solubility constant Hcp: 0.0022
